Test results from ChEMBL document CHEMBL1201862, “PubChem BioAssay data set” (2004).
Where a name gives a salt, the structure may show the parent alone. Activity calls are given as the source filed them.

The chains behind the UniProt entries cited, without tags or fusion partners.
UniProt P35372, whole entry: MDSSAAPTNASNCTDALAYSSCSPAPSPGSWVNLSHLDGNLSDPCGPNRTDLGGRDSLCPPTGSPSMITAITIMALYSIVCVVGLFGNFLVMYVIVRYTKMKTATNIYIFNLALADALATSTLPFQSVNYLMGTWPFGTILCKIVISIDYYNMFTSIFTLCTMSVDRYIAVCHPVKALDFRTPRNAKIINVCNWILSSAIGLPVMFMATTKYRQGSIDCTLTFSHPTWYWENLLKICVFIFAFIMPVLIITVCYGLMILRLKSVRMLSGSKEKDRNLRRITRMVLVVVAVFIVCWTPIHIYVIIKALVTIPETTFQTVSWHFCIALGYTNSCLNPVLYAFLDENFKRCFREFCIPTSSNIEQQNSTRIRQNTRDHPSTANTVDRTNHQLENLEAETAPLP
UniProt P98170, whole entry: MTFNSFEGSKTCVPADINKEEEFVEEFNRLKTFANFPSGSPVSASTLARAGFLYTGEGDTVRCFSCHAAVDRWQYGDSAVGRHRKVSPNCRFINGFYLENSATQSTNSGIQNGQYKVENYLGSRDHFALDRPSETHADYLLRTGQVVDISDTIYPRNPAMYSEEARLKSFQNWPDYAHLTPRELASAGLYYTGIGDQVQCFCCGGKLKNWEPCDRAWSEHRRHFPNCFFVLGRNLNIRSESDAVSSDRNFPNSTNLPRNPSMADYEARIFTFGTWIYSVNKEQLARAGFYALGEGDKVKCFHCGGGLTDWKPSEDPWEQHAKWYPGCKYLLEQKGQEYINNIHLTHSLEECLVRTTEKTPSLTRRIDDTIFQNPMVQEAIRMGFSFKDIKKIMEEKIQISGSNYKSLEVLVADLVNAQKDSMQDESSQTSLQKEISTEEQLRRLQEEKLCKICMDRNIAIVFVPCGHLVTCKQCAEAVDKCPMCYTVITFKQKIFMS
UniProt P35363, whole entry: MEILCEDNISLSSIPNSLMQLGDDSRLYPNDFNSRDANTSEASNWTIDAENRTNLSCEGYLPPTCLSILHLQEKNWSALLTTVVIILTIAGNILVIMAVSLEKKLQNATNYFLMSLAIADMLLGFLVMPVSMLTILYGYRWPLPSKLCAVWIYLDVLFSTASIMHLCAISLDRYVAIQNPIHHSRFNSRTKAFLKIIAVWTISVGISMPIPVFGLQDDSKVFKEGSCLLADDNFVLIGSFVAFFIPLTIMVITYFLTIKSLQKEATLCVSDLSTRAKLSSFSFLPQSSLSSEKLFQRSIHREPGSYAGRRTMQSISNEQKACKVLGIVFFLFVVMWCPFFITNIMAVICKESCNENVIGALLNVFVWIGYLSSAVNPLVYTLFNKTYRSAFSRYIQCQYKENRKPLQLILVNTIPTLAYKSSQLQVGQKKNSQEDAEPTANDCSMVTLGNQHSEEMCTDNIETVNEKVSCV

Experiments:
Mu-type opioid receptor = Mu-type opioid receptor (Homo sapiens, UniProt P35372); assay type: functional, cell-based;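 note: U2OS cells with beta-arrestin recruitment to OPRM1 by beta-gal complementation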
[1] = target: T1, E3 ubiquitin-protein ligase XIAP (Homo sapiens, UniProt P98170); assay: SAR analysis of Antagonists of XIAP-Bir3 domain of IAP-family anti-apoptotic proteins. [Related pubchem assays (depositor defined):AID1018, AID1449, AID1513, AID1514, AID1638]
[2] = target: T1, E3 ubiquitin-protein ligase XIAP; assay: SAR analysis of Antagonists of IAP-family anti-apoptotic proteins. [Related pubchem assays (depositor defined):AID1018, AID1449, AID1513, AID1514, AID1638]
[3] = target: 5-hydroxytryptamine receptor 2A (Mus musculus, UniProt P35363); assay type: functional, cell-based;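 note: CHO-K1 cells with tagged receptor and beta-arrestin; agonist potency measured as compound-induced activation of the receptor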
[4] = target: T2, Mannose-6-phosphate isomerase (Homo sapiens, UniProt P34949); assay: PMI enzyme inhibitors, confirmation, biochemical, fluorescence intensity (AID 1535)
T2 sequence (P34949 whole entry): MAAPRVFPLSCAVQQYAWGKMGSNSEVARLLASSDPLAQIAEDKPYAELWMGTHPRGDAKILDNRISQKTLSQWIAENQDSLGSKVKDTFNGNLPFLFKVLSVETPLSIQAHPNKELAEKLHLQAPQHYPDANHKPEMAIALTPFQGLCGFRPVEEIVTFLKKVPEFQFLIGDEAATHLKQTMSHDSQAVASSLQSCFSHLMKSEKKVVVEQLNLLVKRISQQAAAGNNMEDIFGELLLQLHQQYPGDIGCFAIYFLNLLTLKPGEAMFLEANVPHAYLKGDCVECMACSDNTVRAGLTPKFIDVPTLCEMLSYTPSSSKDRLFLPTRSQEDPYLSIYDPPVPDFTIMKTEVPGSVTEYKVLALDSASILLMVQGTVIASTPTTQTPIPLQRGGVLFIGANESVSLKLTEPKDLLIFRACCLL

## CNCC(O)c1ccc(O)c(O)c1 (stereo unspecified) [RACEPINEPHRINE HYDROCHLORIDE]
Mu-type opioid receptor
  EC50: inactive: 92.6 µM

## CNC[C@H](O)c1ccc(O)c(O)c1 [EPINEPHRINE BITARTRATE]
Mu-type opioid receptor
  EC50: inactive: 92.5 µM

## CC(C)[C@H](NC(=O)[C@@H](C)N)C(=O)N1CCC[C@H]1C(=O)NC(c1ccccc1)c1ccccc1
[1]
  IC50: active: 76.5 µM
[2]
  IC50: inactive: > 100 µM

## O=C1CCc2ccc(OCCCCN3CCN(c4cccc(Cl)c4Cl)CC3)cc2N1 [ARIPIPRAZOLE]
[3]
  EC50: active: 8.39 µM

## O=c1c2ccccc2sn1-c1ccc(Cl)cc1
[4]
  IC50: active: 2.45 µM
